Data on 1 compound can be found in PubChem BioAssay AID488857 (Sanford-Burnham Center for Chemical Genomics, 2010).

A word on the inhibition: it is the percentage by which the read-out fell short of the control.

Only a part is listed here, and it is no random draw. Calls of active or inactive are those of the source.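 The calls were made as follows: active = mean inhibition over duplicate tests at 10 µM above 50%; inactive = the rest.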

The nature of this assay: ASC/caspase-1 reporter retest in S. cerevisiae at one dose, specificity check for NALP1 project (AID 488857). As to conditions: S. cerevisiae ASC/Caspase-1, beta-galactosidase luminescence, 24 h; at 10 µM; active compounds read high.
As for `CCN1CCC(Nc2cccc(F)c2)CC1`, the inhibition is inactive: 18.5%.
